Sequences of proteins named here, by UniProt entry; tags and fusion partners are left off.
UniProt Q15910, whole entry Y641F: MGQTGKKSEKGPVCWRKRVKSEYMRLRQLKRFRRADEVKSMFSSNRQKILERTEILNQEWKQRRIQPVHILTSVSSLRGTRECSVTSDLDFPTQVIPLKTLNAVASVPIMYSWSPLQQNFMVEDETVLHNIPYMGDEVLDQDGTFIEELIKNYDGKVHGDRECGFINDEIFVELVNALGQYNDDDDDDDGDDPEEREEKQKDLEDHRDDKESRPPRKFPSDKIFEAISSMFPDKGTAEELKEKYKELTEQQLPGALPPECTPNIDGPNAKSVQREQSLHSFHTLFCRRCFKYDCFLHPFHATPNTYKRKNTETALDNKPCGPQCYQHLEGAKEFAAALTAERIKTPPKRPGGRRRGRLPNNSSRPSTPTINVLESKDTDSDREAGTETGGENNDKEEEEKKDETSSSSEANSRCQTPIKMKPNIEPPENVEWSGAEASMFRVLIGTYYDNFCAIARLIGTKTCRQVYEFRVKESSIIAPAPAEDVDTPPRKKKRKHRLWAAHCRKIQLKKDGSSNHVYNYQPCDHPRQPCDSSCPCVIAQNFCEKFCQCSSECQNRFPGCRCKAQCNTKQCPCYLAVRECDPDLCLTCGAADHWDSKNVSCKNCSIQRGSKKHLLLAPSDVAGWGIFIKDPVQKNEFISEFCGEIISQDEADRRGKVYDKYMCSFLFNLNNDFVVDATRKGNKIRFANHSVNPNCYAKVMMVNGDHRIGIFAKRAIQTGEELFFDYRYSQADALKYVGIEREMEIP

In US10968215B2 (SHANGHAI HAIHE PHARMACEUTICAL CO., LTD., priority 2016, dated 2021):

Molecular target: PRC2 complex (EZH2 Y641F/EED/SUZ12/RbAp48/AEBP2) (Homo sapiens (Human), UniProt Q15910, Y641F)
Assay: Activity of a compound to PRC2 complex (EZH2 Y641F), HTRF
Conditions: read-out: IC50 (EZH2_Y641F), class symbols

N-((4,6-dimethyl-2-oxo-1,2-dihydropyridin-3-yl)methyl)-6-methyl-5-(1-morpholinylethyl)-1-(3,5-dimethylphenyl)indolizine-7-amide [Example 94]
IC50: < 100 nM
